Measured values taken from US5073627A, “Fusion proteins comprising GM-CSF and IL-3” (Immunex Corporation, priority 1990, dated 1991).

What was measured:
[1] = biological target: T1, receptors for GM-CSF on KG-1 cells (Homo sapiens, UniProt P15509+P32927); assay: Inhibition of 125I-GM-CSF binding to KG-1 cells
T1 construct: endogenous in cells; host or cells: KG-1
T1 sequence (P15509 23-400): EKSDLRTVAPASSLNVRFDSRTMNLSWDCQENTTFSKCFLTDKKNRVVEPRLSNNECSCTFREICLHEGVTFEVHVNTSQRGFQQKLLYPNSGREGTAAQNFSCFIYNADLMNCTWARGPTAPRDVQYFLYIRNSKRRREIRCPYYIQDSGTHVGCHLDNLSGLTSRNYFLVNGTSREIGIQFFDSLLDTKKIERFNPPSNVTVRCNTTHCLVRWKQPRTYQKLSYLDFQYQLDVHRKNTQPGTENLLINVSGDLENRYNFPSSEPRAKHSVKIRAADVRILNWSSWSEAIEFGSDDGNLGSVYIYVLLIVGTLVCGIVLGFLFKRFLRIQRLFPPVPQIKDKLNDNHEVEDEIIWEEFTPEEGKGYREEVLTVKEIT
T1 sequence (P32927 17-897): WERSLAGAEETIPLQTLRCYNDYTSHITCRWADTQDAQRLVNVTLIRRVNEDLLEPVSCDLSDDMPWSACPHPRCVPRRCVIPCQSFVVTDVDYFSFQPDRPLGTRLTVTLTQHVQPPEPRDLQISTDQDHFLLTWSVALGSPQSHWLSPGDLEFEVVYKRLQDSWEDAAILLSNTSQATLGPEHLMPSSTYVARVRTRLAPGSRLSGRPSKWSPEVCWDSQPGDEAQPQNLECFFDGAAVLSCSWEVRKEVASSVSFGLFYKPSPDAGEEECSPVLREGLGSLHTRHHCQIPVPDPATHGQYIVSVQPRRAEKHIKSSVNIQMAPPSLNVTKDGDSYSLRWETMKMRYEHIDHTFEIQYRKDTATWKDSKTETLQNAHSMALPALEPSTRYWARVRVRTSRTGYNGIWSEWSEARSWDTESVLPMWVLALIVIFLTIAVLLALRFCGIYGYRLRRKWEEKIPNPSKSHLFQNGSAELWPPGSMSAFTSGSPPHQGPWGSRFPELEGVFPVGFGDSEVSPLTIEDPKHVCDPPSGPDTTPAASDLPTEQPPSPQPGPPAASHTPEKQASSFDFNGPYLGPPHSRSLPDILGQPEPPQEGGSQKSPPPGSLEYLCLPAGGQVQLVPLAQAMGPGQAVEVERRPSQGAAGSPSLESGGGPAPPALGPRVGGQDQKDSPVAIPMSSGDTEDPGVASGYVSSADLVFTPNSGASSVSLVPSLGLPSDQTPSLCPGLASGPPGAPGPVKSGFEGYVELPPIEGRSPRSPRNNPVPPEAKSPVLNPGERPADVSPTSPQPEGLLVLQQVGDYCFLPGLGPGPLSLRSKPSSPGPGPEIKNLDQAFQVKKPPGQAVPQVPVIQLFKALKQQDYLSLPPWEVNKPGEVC
Protocol: (§1) Briefly, 2-10 μg of recombinant protein in 50 μl 0.2M sodium phosphate, pH 7.2, was combined with 50 μl enzymobead reagent, 2 mCi of sodium iodide in 20 μl of 0.05M sodium phosphate pH 7 and 10 μl of 2.5% β-D-glucose. After 10 min at 25° C., sodium azide (10 μl of 50 mM) and sodium metabisulfite (10 μl of 5 mg/ml) were added sequentially and incubation continued for 5 minutes at 25° C.
(§2) B. Binding Assays. Binding assays were performed using JM-1, KG-1, HL-60 and AML-193 cells.

[2] = tested on: unfractionated human bone marrow; assay: Human bone marrow colony formation (CFU-GEMM, CFU-GM, BFU-E); assay type: cell-based; conditions: Table D; for Colonies (Mean ± S.D.) CFU-GEMM / Colonies (Mean ± S.D.) CFU-GM: 14 days; for Colonies (Mean ± S.D.) BFU-E: with erythropoietin, background 48 ± 2; for Colonies (Mean ± S.D.) CFU-GM: agar
[3] = biological target: T2, receptors for GM-CSF on AML-193 cells (Homo sapiens, UniProt P15509+P32927); assay: Inhibition of 125I-GM-CSF binding to AML-193 cells
T2 construct: endogenous in cells; host or cells: AML-193
T2 sequence (P15509 23-400): T1 sequence (P15509 23-400)
T2 sequence (P32927 17-897): T1 sequence (P32927 17-897)
Protocol: as §1, §2

[4] = tested on: AML-193 cells; assay: Thymidine incorporation assay, proliferation of AML-193 cells; assay type: cell-based, human; conditions: one unit = amount of growth factor for half-maximal thymidine incorporation
Protocol: The cells were split twice weekly and were seeded into fresh medium at a density of 300,000/ml.
These samples were then serially diluted by 3-fold through the additional 11 wells of the microtitre plate. […] Tritiated thymidine ([…]) was added to each well for an additional 6 hours of incubation and the samples were harvested with an automated sample harvester and counted by liquid scintillation. One unit of activity is defined as the amount of growth factor required to stimulate half-maximal thymidine incorporation.

[5] = biological target: T3, receptors for GM-CSF on HL-60 cells (Homo sapiens, UniProt P15509+P32927); conditions: as described by Park et al.; cited from earlier work
T3 construct: endogenous in cells; host or cells: HL-60
T3 sequence (P15509 23-400): T1 sequence (P15509 23-400)
T3 sequence (P32927 17-897): T1 sequence (P32927 17-897)

[6] = 625 pg/ml (GM-CSF + IL-3: 625 + 625)
[7] = 1250 pg/ml (GM-CSF + IL-3: 1250 + 1250)
[8] = 2500 pg/ml (GM-CSF + IL-3: 2500 + 2500)
[9] = 5000 pg/ml (GM-CSF + IL-3: 5000 + 5000)

B1: IL-3: recombinant human Interleukin-3 expressed in yeast, comparator (protein, UniProt P08700 20-152, looked up)
Interleukin-3: APMTQTTPLKTSWVNCSNMIDEIITHLKQPPLPLLDFNNLNGEDQDILMENNLRRPNLEAFNRAVKSLQNASAIESILKNLLPCLPLATAAPTRHPIHIKDGDWNEFRRKLTFYLKTLENAQAQQTTLSLAIF
modifications: expressed in yeast
notes: recombinant human Interleukin-3 expressed in yeast, comparator
Competition of specific binding of heterologous radiolabeled ligand [1]: partially compete | Colonies (Mean ± S.D.) CFU-GEMM ([2]; 312 pg/ml (GM-CSF + IL-3: 312 + 312)): 0 colonies | Colonies (Mean ± S.D.) CFU-GEMM [2, 6]: 0 colonies | Colonies (Mean ± S.D.) BFU-E [2, 6]: 45 ± 3 colonies | Colonies (Mean ± S.D.) CFU-GEMM [2, 7]: 1.3 ± 0.3 colonies | Colonies (Mean ± S.D.) CFU-GM [2, 7]: 4 ± 1 colonies | Colonies (Mean ± S.D.) BFU-E [2, 7]: 49 ± 2 colonies | Colonies (Mean ± S.D.) CFU-GEMM [2, 8]: 4.0 ± 0.4 colonies | Colonies (Mean ± S.D.) CFU-GM [2, 8]: 9 ± 1 colonies | Colonies (Mean ± S.D.) BFU-E [2, 8]: 66 ± 2 colonies | Colonies (Mean ± S.D.) CFU-GEMM [2, 9]: 4.0 ± 0.7 colonies | Colonies (Mean ± S.D.) CFU-GM [2, 9]: 16 ± 0.3 colonies | Colonies (Mean ± S.D.) BFU-E [2, 9]: 67 ± 2 colonies | Competition of specific binding of heterologous radiolabeled ligand [3]: partially compete | Specific Activity [4]: 1.65 × 10^5 units/mg | Inhibition of 125I-GM-CSF binding to HL-60 cells [5]: nor does IL-3 inhibit binding
